In the library only some 1.5% were active in any assay of this set; here they are far more common.
DSG3 Ab inh – blocks pemphigus antibody binding to human desmoglein-3 | P32926 | DSG3-coupled beads, scFv-anti-DSG3-GFP binding, flow cytometry; stronger effect = lower value | binding (percent of control), % at 10 µM | 0.48% of 310,000 active | AID 588358;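 active = binding more than 3 SD below its plate's average and above zero; inconclusive = below that plate limit but binding exactly zero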;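 also: hits lower antibody fragment binding to DSG3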
eIF4H inh – inhibitors of RNA binding by human eIF4H. eIF4H fluorescence polarization binding assay. 0.94% of 290,000 active. inhibition, % at 35 µM;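 also: calls also rest on retests at 20 µM and on dose response follow-up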
PABP FP inh – blocks human PABP binding to poly(A) RNA; P11940; fluorescence polarization; calls only at 35 µM; 1% of 290,000 active; AID 2014;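 also: calls also rest on retests at 20 µM and on dose response follow-up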
MLLE-PAM2 inh – blocks PAM2 peptide binding to the PABP1 MLLE domain. P11940. GST-MLLE / FITC-PAM2 fluorescence polarization. inhibition, % at 20 µM. 0.36% of 360,000 active. AID 588489; in the data active = inhibition above about 35%, passing the limit was not always enough
Yeast UUG start – modulators of yeast start codon fidelity, primary screen, whole organism, S. cerevisiae, single point, plate reader | AID 602363, 2012 | actives 0.13% (n = 350,000) | activity score, % at 18.7 µM | S. cerevisiae UUG-firefly luciferase reporter, luminescence/redox ratio;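 active means replicate mean at a twofold rise or more, about +100% in these data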;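 further: firefly luciferase made from a UUG start codon reports start codon fidelity; reporter light over untreated wells divided by growth signal over untreated wells; some hits fall short of that in this replicate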
Large screens that a line does not name were inactive. Unless noted, no rule for the calls is given here.

CCOC(=O)N(C)C[C@H]1OCc2ccccc2-c2ccccc2C(=O)N([C@@H](C)CO)C[C@@H]1C	none (no result: DSG3 Ab inh, eIF4H inh, PABP FP inh, MLLE-PAM2 inh)
CS(=O)(=O)N1CCc2cc(S(=O)(=O)Nc3ccc4c(c3)OCCO4)ccc21	none
CS(=O)(=O)N1CCc2cc(S(=O)(=O)NCCNS(=O)(=O)c3ccc4c(c3)CCN4S(C)(=O)=O)ccc21	DSG3 Ab inh 77
COc1ccc(Nc2cc(C)nc3nc(C)nn23)c(OC)c1	none
COc1ccc(OC)c(Nc2cc(C)nc3nc(C)nn23)c1	DSG3 Ab inh 82
N#Cc1c2n(c3c(=O)n(CC(=O)c4ccc(Br)cc4)cnc13)CCCC2	none
N#Cc1c2ncn(CC(=O)c3ccc(Br)cc3)c(=O)c2c2n1CCC2	DSG3 Ab inh 30
O=c1[nH]c(SCc2ccccc2)nc2ccsc12	none (no result: Yeast UUG start)
CCOC(=O)CSc1nc2ccsc2c(=O)[nH]1	PABP FP inh active
COCC(=O)N1C[C@@H](C)[C@@H](OC)CN(C)C(=O)c2ccc(NC(=O)c3ccccc3)cc2OC[C@@H]1C	none (no result: DSG3 Ab inh, eIF4H inh, PABP FP inh, MLLE-PAM2 inh)
CO[C@@H]1CN(C)C(=O)c2cc(NC(=O)c3ccc(F)cc3)ccc2OC[C@@H](C)N(C(C)=O)C[C@@H]1C	none (no result: DSG3 Ab inh, eIF4H inh, PABP FP inh, MLLE-PAM2 inh)
Nc1nc(N)c(N=Nc2ccccc2)c(=O)[nH]1	none (no result: eIF4H inh, PABP FP inh)
Nc1nc(N=Nc2ccc(O)cc2)cc(=O)[nH]1	MLLE-PAM2 inh 52 (no result: eIF4H inh, PABP FP inh)
CC1CC(C)CN(S(=O)(=O)c2ccc(C(C)(C)C)cc2)C1 (configuration not stated)	PABP FP inh active (no result: Yeast UUG start)
N#Cc1c(-c2ccco2)cc(-c2ccc(F)cc2)nc1N	eIF4H inh 62, PABP FP inh active
CC(C)NC(=O)N(C)C[C@H]1Oc2ccc(NS(C)(=O)=O)cc2CC(=O)N([C@H](C)CO)C[C@@H]1C	none (no result: DSG3 Ab inh, eIF4H inh, PABP FP inh, MLLE-PAM2 inh)
Cc1ccc(S(=O)(=O)N(C)C[C@@H]2Oc3ccc(NC(=O)Cn4cnnn4)cc3C(=O)N([C@@H](C)CO)C[C@@H]2C)cc1	none (no result: DSG3 Ab inh, eIF4H inh, PABP FP inh, MLLE-PAM2 inh)
CCCc1n(CC(O)COC2CCCCC2)c2ccccc2[n+]1C (configuration not stated)	PABP FP inh active
CCCc1n(CC(O)COCc2ccccc2)c2ccccc2[n+]1C (configuration not stated)	none (no result: Yeast UUG start)
CCCc1n(CC(O)COCC2CC=CCC2)c2ccccc2[n+]1C (configuration not stated)	PABP FP inh active
C[C@H](CO)N1C[C@H](C)[C@H](CN(C)Cc2ccccc2)OCCCC[C@H](C)Oc2ccc(NS(=O)(=O)c3ccc(Cl)cc3)cc2C1=O	none (no result: DSG3 Ab inh, eIF4H inh, PABP FP inh, MLLE-PAM2 inh)
CCOC(=O)C1CCCN(C(=O)c2ccc(-c3ccc([N+](=O)[O-])cc3)o2)C1 (configuration not stated)	MLLE-PAM2 inh 41 (no result: eIF4H inh, PABP FP inh, Yeast UUG start)
O=S(=O)(c1ccc(F)cc1)N1CC[C@@H]2[C@@H](CO)Nc3ccc(-c4ccc(F)cc4)cc3[C@@H]21	none (no result: DSG3 Ab inh, eIF4H inh, PABP FP inh, MLLE-PAM2 inh)
CCN(CC)c1ccc(C=N/C(C#N)=C(\N)C#N)cc1	eIF4H inh inconclusive, PABP FP inh active (no result: Yeast UUG start)
CCN(CC)c1ccc(/C=C(\C#N)c2ccccn2)cc1	none (no result: Yeast UUG start)
Cc1nc(-c2ccc(S(=O)(=O)Nc3cccc(Cl)c3)cc2)co1	DSG3 Ab inh 59
CSc1cccc(NS(=O)(=O)c2ccc(-c3coc(C)n3)cc2)c1	DSG3 Ab inh 3.0 (no result: eIF4H inh, PABP FP inh)
COc1ccc(NS(=O)(=O)c2ccc(-c3coc(C)n3)cc2)cc1OC	none (no result: eIF4H inh, PABP FP inh)
C/C=C/c1ccc([C@@H]2[C@@H](CO)N3CCCCN(S(=O)(=O)c4cccs4)C[C@@H]23)cc1	none (no result: DSG3 Ab inh, eIF4H inh, PABP FP inh, MLLE-PAM2 inh)
O=C(CSc1ncnc2sc3c(c12)CCC3)N1CCOCC1	eIF4H inh 62 (no result: DSG3 Ab inh, Yeast UUG start)
O=C(Nc1sc2c(c1C(=O)O)CCC2)C(=O)N1CCOCC1	eIF4H inh 86, PABP FP inh active
CCN1C(N(C)CCc2cccs2)=N[C@@H](c2ccccc2)C(C(=O)OC)=C1C	PABP FP inh active
Cc1noc(C)c1NC(=O)N(C)C[C@H]1Oc2ccc(NC(=O)Cc3cn(C)c4ccccc34)cc2C(=O)N([C@@H](C)CO)C[C@H]1C	none (no result: DSG3 Ab inh, eIF4H inh, PABP FP inh, MLLE-PAM2 inh)
CCC1S/C(=C(\C#N)C(=O)NCc2ccco2)N(c2ccc(F)cc2)C1=O (configuration not stated)	none
CCC1S/C(=C(\C#N)C(=O)NCc2ccco2)N(c2ccc(Br)cc2)C1=O (configuration not stated)	eIF4H inh 73, PABP FP inh active (no result: DSG3 Ab inh)
CC1S/C(=C(\C#N)C(=O)NCc2ccco2)N(c2ccc(F)cc2)C1=O (configuration not stated)	eIF4H inh 110, PABP FP inh active
C[C@@H]1CN([C@H](C)CO)C(=O)c2cc(C#CC3CCCCC3)cnc2O[C@@H]1CN(C)C	none (no result: DSG3 Ab inh, eIF4H inh, PABP FP inh, MLLE-PAM2 inh)
O=C(O)CCCN1C(=O)/C(=C/c2ccc(-c3nc4ccccc4s3)o2)SC1=S	DSG3 Ab inh 89, eIF4H inh inconclusive, PABP FP inh active
O=C(O)CCCCCN1C(=O)/C(=C\c2ccc(-c3ccc(Cl)cc3)o2)SC1=S	eIF4H inh 54, PABP FP inh active
COc1ccc(/C=C(/CC(=O)NCc2ccc(Cl)cc2)c2nc3ccccc3s2)cc1	eIF4H inh active
COc1ccc(/C=C(/CC(=O)Nc2ccccc2)c2nc3ccccc3s2)cc1	none (no result: Yeast UUG start)
C[C@H](CO)N1C[C@H](C)[C@@H](CN(C)S(=O)(=O)c2ccc(Cl)cc2)Oc2c(NC(=O)Nc3ccc(F)cc3)cccc2C1=O	none (no result: DSG3 Ab inh, eIF4H inh, PABP FP inh, MLLE-PAM2 inh)
Cn1nnc(NC(=S)NC(=O)c2ccc3ccccc3c2)n1	MLLE-PAM2 inh 49 (no result: eIF4H inh, PABP FP inh)
COC(=O)/C=C1\SC(=NC(=O)c2ccc(C)cc2)NC1=O	MLLE-PAM2 inh 40 (no result: Yeast UUG start)
COC(=O)CSc1nc(C)cc(C(F)(F)F)c1C#N	none
Cc1ccc(S(=O)(=O)CCSc2nc(C)cc(C(F)(F)F)c2C#N)cc1	eIF4H inh 83, PABP FP inh active
c1ccc2c(c1)nnn2Cc1nnc2sc(-c3ccc4c(c3)OCCO4)nn12	MLLE-PAM2 inh 41
c1ccc(-c2nn3c(Cn4nnc5ccccc54)nnc3s2)cc1	none
O=C1OC(COc2ccc(Br)cc2)CN1c1ccccc1 (configuration not stated)	DSG3 Ab inh 81 (no result: Yeast UUG start)
C#CCOCC1CN(c2ccccc2)C(=O)O1 (configuration not stated)	none (no result: eIF4H inh, PABP FP inh)
COc1ccc(C(=O)NN=C(Cc2ccccc2)Cc2ccccc2)cc1OC	DSG3 Ab inh 0.8 (no result: Yeast UUG start)
C[C@@H]1CN([C@H](C)CO)C(=O)c2cc(NC(=O)C3CC3)ccc2O[C@H]1CN(C)C(=O)Nc1cccc2ccccc12	none (no result: DSG3 Ab inh, eIF4H inh, PABP FP inh, MLLE-PAM2 inh)
CC(=O)Nc1nnc(CCS(=O)(=O)c2ccc(C)c(C)c2)s1	DSG3 Ab inh 6.1
COCCCNC(=O)[C@@]1(Cc2ccccc2N=[N+]=[N-])N=C(c2ccc(OCCCO)cc2)O[C@H]1c1ccccc1N=[N+]=[N-]	none (no result: DSG3 Ab inh, eIF4H inh, PABP FP inh, MLLE-PAM2 inh)
Cc1ccc(C)n1-c1ccc(N2CCOCC2)nc1	eIF4H inh 71, PABP FP inh active
CCOC(=O)CC(=O)CSc1nc(N)c(C#N)c(-c2ccc(Cl)cc2)c1C#N	eIF4H inh 114, PABP FP inh active
CC1(C)CN(c2ccsc2C(=O)O)C1=O	DSG3 Ab inh 56 (no result: Yeast UUG start)
O=C(O)c1sccc1S(=O)(=O)N1CCCCC1	none (no result: eIF4H inh, PABP FP inh)
COC(=O)c1cn(CC(=O)N2CCC3(CC2)C(=O)NCN3c2ccccc2)nn1	none (no result: DSG3 Ab inh, eIF4H inh, PABP FP inh, MLLE-PAM2 inh)
